Molecules are shown by their SMILES. The list shows a part of the results, in another mix than the full data. Results filed as inconclusive are left out. Where a call stands in place of a potency, no number is given. The source made the active and inactive calls. The call rests on the fitted dose curve; in most records, active means well fitted cell-killing curve with a large enough effect in the repeat runs; inconclusive means weak or mixed curves; inactive means no such curve, though single readings can be large or run the other way.
Potency means the concentration at half of the fitted maximal effect.

The assay is described as follows: qHTS assay to identify small molecule antagonists of the androgen receptor (AR) signaling pathway - cell viability counter screen (AID 743033; further: nearly all actives have a fitted effect of over 45% in size). The following applies: AR-bla HEK293 viability, CellTiter-Glo luminescence, 16 h; series mostly up to 58.5 µM. The text has this: National Center for Advancing Translational Sciences [NCATS]
NIH Chemical Genomics Center [NCGC]
U.S. Environmental Protection Agency [EPA]
National Institutes of Environmental Health Sciences [NIEHS]
National Toxicology Program [NTP]
U.S. Food and Drug Administration [FDA]
Androgen receptor (AR), a nuclear hormone receptor, plays a critical role in AR-dependent prostate cancer and other androgen related diseases. Endocrine disrupting chemicals (EDCs) and their interactions with steroid hormone receptors like AR may cause disruption of normal endocrine function as well as interfere with metabolic homeostasis, reproduction, developmental and behavioral functions. To identify the compounds that inhibit AR signaling, GeneBLAzer AR-UAS-bla-GripTite cell line (Invitrogen, Carlsbad, CA, USA) containing a beta-lactamase reporter gene under control of an Upstream Activator Sequence (UAS) stably integrated into HEK293 cells was used to screen the Tox21 10K compound library. The cytotoxicity of the Tox21 compound library against the AR-bla cell line was tested in parallel by measuring the cell viability using CellTiter-Glo assay in the same wells.
Tox21 Assay Protocol Summary:
AR-bla cells were dispensed at 2,000 cells/5 uL of assay medium per well into black wall/clear-bottom 1536-well plates using a Multidrop Combi (ThermoFisher Scientific, Waltham, MA) dispenser. After the assay plates were incubated at a 37C and 5% CO2 for 4 hr, 23 nL of compounds dissolved in DMSO, positive controls or DMSO only was transferred to the assay plate by a Pintool station (Kalypsys, San Diego, CA), followed by addition of 1 uL of agonist (R1881) in culture medium using a Bioraptr Flying Reagent Dispenser (FRD) workstation (Beckman Coulter, Indianapolis, IN, USA). The plates were incubated at a 37C and 5% CO2 for 16 h. After 1 uL of LiveBLAzerTM B/G FRET substrate was added using a Bioraptr FRD, the plates were incubated at room temperature for 2 h and fluorescence intensity was measured by an Envision plate reader (PerkinElmer, Shelton, CT). For cell viability readout that measures cytotoxicity, 4 ul/well of CellTiter-Glo reagent was added into the assay plates using a Bioraptr FRD. After 30 min incubation at room temperature, the luminescence intensity in the plates was measured using a ViewLux (PerkinElmer) plate reader.
(In general: qHTS replaces the single test concentration by a dilution series.)
On to `O=[As]c1ccccc1` (configuration not stated), for which the Potency was active: 490 nM. With `O=[N+]([O-])c1ccc(S(=O)(=O)O)c([N+](=O)[O-])c1` the entry was “inactive”; with `COC(=O)Cl`, “inactive”; with `O=C(OC1CN2CCC1CC2)c1ccccc1` (configuration not stated), “inactive”. With `ClP(Cl)c1ccccc1` the entry was “inactive”. With `NC(=O)Nc1ccc([As](=O)(O)O)cc1` the entry was “inactive”.

On to `CCCCC(CC)CO[P+](=O)OCC(CC)CCCC` (configuration not stated), for which the Potency entry was “inactive”. With `O=P(Cl)(Oc1ccccc1)Oc1ccccc1` the entry was “inactive”; with `CN(C(=O)Cc1cccc2occc12)[C@H]1CC[C@@]2(CCCO2)C[C@@H]1N1CCCC1`, “inactive”. With `O=[P+](Oc1ccccc1)Oc1ccccc1` the entry was “inactive”; with `O=P(Cl)(Cl)c1ccccc1`, “inactive”; with `CCOC(=O)Cl`, “inactive”.

Consider `O=[p+]1oc2ccccc2c2ccccc21` (configuration not stated), for which the Potency result was “inactive”. With `COP(=S)(Cl)OC` the entry was “inactive”; with `CC(C)CCCCCCCOP(OCCCCCCCC(C)C)Oc1ccccc1`, “inactive”.

On to `CCNC(C)Cc1ccc2c(c1)OCO2` (configuration not stated), for which the Potency entry is “inactive”. With `CCCCCCCCCCCCCC[P+](CCCCCC)(CCCCCC)CCCCCC` the figure was active: 435 nM; with `CCCCO[P+](=O)OCCCC`, “inactive”. With `CN(C(=O)Cc1ccccc1)[C@H]1CC[C@@]2(CCCO2)C[C@@H]1N1CCCC1` the entry was “inactive”; with `CN(C(=O)Cc1ccc(Cl)c(Cl)c1)[C@H]1CC[C@@]2(CCCO2)C[C@@H]1N1CCCC1`, “inactive”. With `CN(N=O)C(=N)N[N+](=O)[O-]` the entry was “inactive”; with `CCOP(=S)(CC)Sc1ccccc1` (configuration not stated), “inactive”.
